Rows were chosen to be rich in hits. Some 0.43% of all compounds tested hit in one or more screens of this group.
GIV-Gai inh: inhibitors of GIV peptide binding to Galpha-i3, primary screen, biochemical, fluorescence polarization, FITC-GIV GBA peptide, rat Galphai3 | Guanine nucleotide-binding protein G(i) subunit alpha-3 (Rattus norvegicus), P08753 | 90 min; hits give low values; scaled: aluminum fluoride 0%, vehicle 100% | percent of control (FP), % (test concentration not listed) | hit rate 0.42% among 210,000 | AID 1224905, 2016;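 active = replicate mean at 85% of control or lower, very high polarization wells dropped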;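 note: wells of about 15 µL received 100 nL stock; the first replicate is given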
HCMV NEC inh: disrupts HCMV UL50-UL53 complex binding. 0.15% of 190,000 active. HTRF UL50-UL53 interaction, normalized percent inhibition. inhibition, % (concentration not given with the values); in the data active = inhibition above about 27%, passing the limit was not always enough
GIV-Gai FP conf: GIV-Galpha-i3 inhibition, FP confirmation; shares compounds with GIV-Gai inh; FITC-GIV peptide binding to Galphai3, fluorescence polarization; stronger effect = lower value; fluorescence polarization, mP at 100 µM; 38% of 580 active; AID 1259350;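 active = inhibition score of 15 or more, meaning 100 minus mean polarization as percent of control over three replicates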
GIV-Gai AS conf: GIV-Galpha-i3 inhibition, AlphaScreen confirmation; AlphaScreen counts at 100 µM; AlphaScreen Galphai3-GIV binding, purified proteins, 90 min; stronger effect = lower value; shares compounds with GIV-Gai inh; 39% of 580 active;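 active = inhibition score at or above a set limit, where the score is 100 minus the three-replicate mean percent of control signal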
An asterisk follows results filed as active; · = no result given.

Sequences of proteins named here, by UniProt entry; tags and fusion partners are left off.
Guanine nucleotide-binding protein G(i) subunit alpha-3 (Rattus norvegicus), P08753, UniProt P08753, whole entry, looked up: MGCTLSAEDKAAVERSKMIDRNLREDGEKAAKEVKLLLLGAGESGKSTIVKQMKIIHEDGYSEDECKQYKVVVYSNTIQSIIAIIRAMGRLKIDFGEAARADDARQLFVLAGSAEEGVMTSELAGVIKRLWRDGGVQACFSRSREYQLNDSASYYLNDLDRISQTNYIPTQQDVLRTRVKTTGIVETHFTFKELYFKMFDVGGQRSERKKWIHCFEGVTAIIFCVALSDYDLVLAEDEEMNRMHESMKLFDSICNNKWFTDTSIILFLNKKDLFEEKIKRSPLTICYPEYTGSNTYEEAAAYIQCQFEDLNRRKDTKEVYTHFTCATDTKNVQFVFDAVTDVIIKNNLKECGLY

SMILES | GIV-Gai inh | HCMV NEC inh | GIV-Gai FP conf | GIV-Gai AS conf
CC(C)c1ccc(C2C(C#N)=C(N)N3C(=C2C#N)Sc2ccccc23)cc1 (configuration not stated) | 78.9* | · | 75.4 | 39185
CC(C)(C)NS(=O)(=O)c1ccc2c(c1)C(C)(C)CN2CC(=O)N1CCCC1 | 105.8 | · | · | ·
Nc1cc(=O)nc2ccccn12 | · | -26.0 | · | ·
Cc1cccc(NC(=O)C(F)(F)C(F)(F)C(F)(F)F)n1 | 65.3* | 3.7 | 77.5 | 31955
Cc1cccc(NC(=O)c2ccco2)n1 | 107.9 | -9.4 | · | ·
COc1ccc(Oc2ncccc2NC(=O)c2ccc(OC)cc2)cc1 | 109.2 | -40.8 | · | ·
CCOc1cccc(N2C(=O)/C(=C/c3cn(CC(=O)N4CCOCC4)c4ccccc34)C(=O)NC2=S)c1 | 82.1* | -3.1 | 62.4 | 45192
CN1C(=O)/C(=C/c2cn(CC(=O)N3CCCC3)c3ccccc23)C(=O)NC1=S | 94.6 | -4.9 | · | ·
Cn1c(SCC(=O)N2CCCCC2)nc2cc(-c3ccccc3)sc2c1=O | 98.3 | · | · | ·
CCn1nnc2cc(-c3noc(-c4cnccn4)n3)ccc21 | 98.3 | · | · | ·
Cc1nc2cc(-c3noc(-c4cnccn4)n3)ccc2n(C(C)C)c1=O | 105.8 | -40.3 | 91.2 | 35710
C=CCNC(=O)N1CCc2[nH]c3ccc(F)cc3c2C1 | 85.3* | -36.1 | 58.6* | 37919
Cc1nnsc1C(=O)N1CCc2[nH]c3ccc(F)cc3c2C1 | 99.4 | -12.3 | · | ·
Cc1c(Cl)cccc1-n1ccn(CC#N)c(=O)c1=O | 103.8 | -1.4 | · | ·
CCC1(C)OC(=O)N(CCO)C1(C)O (configuration not stated) | 115.5 | · | · | ·
Cc1c(C)[n+]([O-])c2ccc3c(non3O)c12 | 93.9 | -97.9 | · | ·
COn1c(C)c(C)c2c3no[n+]([O-])c3ccc21 | 72.0* | -8.2 | 60.5 | 22452*
CCOC(=O)c1c(C)oc2c1c(C=NC(C)c1ccccc1)c(O)c1ccccc12 (configuration not stated) | 103.1 | · | · | ·
CCOC(=O)c1c(C)oc2c1c(O)c(N=O)c1ccccc12 | 42.0* | -52.9 | 47.5* | 50417
CCN(CC)C(=O)Cn1ccc2ccc(-c3nnc(C)o3)cc21 | 106.5 | · | · | ·
O=C(O)CSc1nnc2n1-c1ccc(Cl)cc1NN2 | 47.5* | -265.2 | 38.7* | 6321*
Clc1ccc2c(c1)NNc1nncn1-2 | 101.1 | -293.6 | · | ·
CCCn1c(C)cc(C(=O)CSc2nc(O)cc(=O)n2C2CCCC2)c1C | · | -4.6 | · | ·
O=C1CCCC(O)=C1C1=NC2(CCCCCC2)Cc2ccccc21 | 102.9 | · | · | ·
O=C1CCCC(O)=C1C1(O)C(=O)c2ccccc2C1=O | 62.1* | 74.4* | 56* | 55998

The list goes on:
SMILES | GIV-Gai inh | HCMV NEC inh | GIV-Gai FP conf | GIV-Gai AS conf
Cc1ccc(NC(=S)Nc2cccc(C(F)(F)F)c2)cc1NS(C)(=O)=O | 68.9* | 74.5* | 50* | 38510
COC(CNC(=S)Nc1cccc(C(F)(F)F)c1)OC | 103.6 | -1.6 | · | ·
CCOCCCNC(=O)NCCc1nc2cccnc2n1-c1ccccc1 | 108.3 | -12.2 | · | ·
O=C(c1ccccc1)c1ccccn1 | 77.5* | -19.9 | 71.8 | 34253
NC(=O)c1ccccn1 | · | -1.9 | · | ·
COc1ccc(CCNC(=O)c2ccc3c(c2)nc(C)n3-c2cc(OC)c(OC)c(OC)c2)cc1OC | 116.8 | · | · | ·
O=C(CSc1nnc2c3sc(N4CCCC4)nc3ncn12)Nc1ccccc1 | 80.7* | · | 80.6 | 31906
COc1ccc(NC(=O)CSc2nnc3c4sc(N5CCCC5)nc4ncn23)cc1 | 109.2 | · | · | ·
O=C1NC2(O)C(=O)c3ccccc3C2(O)N1 (configuration not stated) | 112.5 | · | · | ·
NC1=NC2(O)c3ccccc3C(=O)C2(O)NN1 (configuration not stated) | 76.4* | · | 53.6* | 44135
COCCn1c(C)cc(C=C2C(=O)NC(=O)NC2=O)c1C | 98.1 | -35.1 | · | ·
COCCn1c(C)cc(C=C2C(=O)N(C)C(=S)N(C)C2=O)c1C | 92.7 | · | 70.3 | 21525*
CCCCC(C(=O)O)N1C(=O)/C(=C/c2cccnc2)SC1=S (configuration not stated) | 83.3* | -44.8 | 71.8 | 35991
CCCC(C(=O)O)N1C(=O)/C(=C/c2ccc(C)cc2)SC1=S (configuration not stated) | · | -16.0 | · | ·
COc1ccc(C2C(C(=O)Nc3ccc(OC)c(OC)c3)c3ccccc3C(=O)N2c2ccc(OC)cc2)cc1 (configuration not stated) | 97.4 | -21.1 | · | ·
COc1ccc(NC(=O)CCc2c(C)nc3c(-c4ccc(F)cc4)c(C)nn3c2C)c(OC)c1 | 92.3 | -7.1 | 79.9 | 32949
COc1ccc(OC)c(NC(=O)CCc2c(C)nc3c(-c4ccccc4)c(C)nn3c2C)c1 | 101.5 | -4.9 | · | ·
O=c1c(=N\O)/c(=N/O)c(=O)c2ccccc12 | 58.7* | 97.2* | 63.8* | 4729*
O=c1c(=Nc2ccccc2O)c(=O)c2ccccc12 | · | 37.0 | · | ·

At a glance, part of the list above.
SMILES | GIV-Gai inh | HCMV NEC inh | GIV-Gai FP conf | GIV-Gai AS conf
COc1ccc(CCNC(=O)c2ccc3c(c2)nc(C)n3-c2cc(OC)c(OC)c(OC)c2)cc1OC | 116.8 | · | · | ·
O=C(CSc1nnc2c3sc(N4CCCC4)nc3ncn12)Nc1ccccc1 | 80.7* | · | 80.6 | 31906
COc1ccc(NC(=O)CSc2nnc3c4sc(N5CCCC5)nc4ncn23)cc1 | 109.2 | · | · | ·
O=C1NC2(O)C(=O)c3ccccc3C2(O)N1 (configuration not stated) | 112.5 | · | · | ·
NC1=NC2(O)c3ccccc3C(=O)C2(O)NN1 (configuration not stated) | 76.4* | · | 53.6* | 44135
